Test results reported in article PMC10009755, “Discovery and Characterization of BAY-805, a Potent and Selective Inhibitor of Ubiquitin-Specific Protease USP21” (Journal of Medicinal Chemistry, 2023).

By UniProt entry, the sequences of proteins in these tests, tags left out. Where a name states a change or a piece, a line headed by the entry shows the natural chain unless it says otherwise. Residues count along the entry.
UniProt Q96RG2: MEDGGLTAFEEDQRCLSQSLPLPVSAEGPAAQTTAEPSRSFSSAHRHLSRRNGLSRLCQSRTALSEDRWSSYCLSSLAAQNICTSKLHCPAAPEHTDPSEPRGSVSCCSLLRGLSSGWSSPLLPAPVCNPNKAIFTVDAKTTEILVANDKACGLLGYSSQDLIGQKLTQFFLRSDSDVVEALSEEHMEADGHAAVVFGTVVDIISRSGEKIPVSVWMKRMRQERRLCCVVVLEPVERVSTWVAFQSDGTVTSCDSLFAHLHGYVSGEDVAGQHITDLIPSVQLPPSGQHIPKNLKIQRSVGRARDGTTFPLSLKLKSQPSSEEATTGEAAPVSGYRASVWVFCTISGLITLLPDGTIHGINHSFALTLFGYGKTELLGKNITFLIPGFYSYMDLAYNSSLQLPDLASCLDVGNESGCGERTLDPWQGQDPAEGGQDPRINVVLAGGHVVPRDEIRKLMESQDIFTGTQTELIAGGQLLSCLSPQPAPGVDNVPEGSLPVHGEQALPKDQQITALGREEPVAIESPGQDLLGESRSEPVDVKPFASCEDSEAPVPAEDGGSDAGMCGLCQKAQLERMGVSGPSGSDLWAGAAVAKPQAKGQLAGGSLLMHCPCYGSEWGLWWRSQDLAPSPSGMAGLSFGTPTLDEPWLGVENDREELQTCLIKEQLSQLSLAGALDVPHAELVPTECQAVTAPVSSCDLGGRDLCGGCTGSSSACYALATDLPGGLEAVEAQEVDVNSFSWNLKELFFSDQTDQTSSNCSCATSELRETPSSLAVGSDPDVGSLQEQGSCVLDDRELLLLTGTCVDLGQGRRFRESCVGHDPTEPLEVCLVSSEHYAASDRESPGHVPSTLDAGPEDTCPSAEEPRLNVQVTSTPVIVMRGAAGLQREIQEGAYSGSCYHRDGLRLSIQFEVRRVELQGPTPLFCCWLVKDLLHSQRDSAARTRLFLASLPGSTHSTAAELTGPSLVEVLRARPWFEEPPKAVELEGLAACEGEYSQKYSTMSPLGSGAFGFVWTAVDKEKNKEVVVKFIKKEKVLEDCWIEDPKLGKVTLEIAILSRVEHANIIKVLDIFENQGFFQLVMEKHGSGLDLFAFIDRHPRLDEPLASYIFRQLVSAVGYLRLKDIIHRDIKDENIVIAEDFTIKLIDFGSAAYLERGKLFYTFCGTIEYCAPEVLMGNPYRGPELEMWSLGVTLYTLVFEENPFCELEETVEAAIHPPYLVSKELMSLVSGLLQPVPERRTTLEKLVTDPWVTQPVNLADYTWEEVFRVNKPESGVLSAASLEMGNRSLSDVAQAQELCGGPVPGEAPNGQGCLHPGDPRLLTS
UniProt P29317, 24-976: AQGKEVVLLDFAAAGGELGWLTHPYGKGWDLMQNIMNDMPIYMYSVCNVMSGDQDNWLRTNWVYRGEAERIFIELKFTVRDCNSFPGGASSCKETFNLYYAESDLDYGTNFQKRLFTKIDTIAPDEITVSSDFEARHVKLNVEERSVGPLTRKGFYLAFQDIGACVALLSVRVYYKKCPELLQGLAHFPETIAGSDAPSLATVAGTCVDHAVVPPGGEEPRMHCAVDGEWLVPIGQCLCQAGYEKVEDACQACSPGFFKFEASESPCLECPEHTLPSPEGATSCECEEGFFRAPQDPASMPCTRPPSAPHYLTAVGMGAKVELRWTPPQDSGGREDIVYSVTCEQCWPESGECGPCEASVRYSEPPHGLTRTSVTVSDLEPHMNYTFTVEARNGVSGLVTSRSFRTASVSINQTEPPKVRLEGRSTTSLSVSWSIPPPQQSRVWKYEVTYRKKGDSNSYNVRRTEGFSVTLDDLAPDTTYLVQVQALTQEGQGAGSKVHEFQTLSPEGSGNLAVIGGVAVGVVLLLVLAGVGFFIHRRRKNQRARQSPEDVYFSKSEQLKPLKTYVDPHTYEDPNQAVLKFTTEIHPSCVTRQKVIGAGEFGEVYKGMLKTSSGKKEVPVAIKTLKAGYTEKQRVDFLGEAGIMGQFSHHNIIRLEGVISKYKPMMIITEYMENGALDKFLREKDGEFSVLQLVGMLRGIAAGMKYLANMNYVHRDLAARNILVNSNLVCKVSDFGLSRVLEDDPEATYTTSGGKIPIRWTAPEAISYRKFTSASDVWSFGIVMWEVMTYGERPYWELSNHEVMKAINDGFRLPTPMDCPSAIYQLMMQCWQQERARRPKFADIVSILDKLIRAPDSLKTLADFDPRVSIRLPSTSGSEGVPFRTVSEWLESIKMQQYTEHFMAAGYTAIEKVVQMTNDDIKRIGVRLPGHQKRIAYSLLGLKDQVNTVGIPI
UniProt P48736: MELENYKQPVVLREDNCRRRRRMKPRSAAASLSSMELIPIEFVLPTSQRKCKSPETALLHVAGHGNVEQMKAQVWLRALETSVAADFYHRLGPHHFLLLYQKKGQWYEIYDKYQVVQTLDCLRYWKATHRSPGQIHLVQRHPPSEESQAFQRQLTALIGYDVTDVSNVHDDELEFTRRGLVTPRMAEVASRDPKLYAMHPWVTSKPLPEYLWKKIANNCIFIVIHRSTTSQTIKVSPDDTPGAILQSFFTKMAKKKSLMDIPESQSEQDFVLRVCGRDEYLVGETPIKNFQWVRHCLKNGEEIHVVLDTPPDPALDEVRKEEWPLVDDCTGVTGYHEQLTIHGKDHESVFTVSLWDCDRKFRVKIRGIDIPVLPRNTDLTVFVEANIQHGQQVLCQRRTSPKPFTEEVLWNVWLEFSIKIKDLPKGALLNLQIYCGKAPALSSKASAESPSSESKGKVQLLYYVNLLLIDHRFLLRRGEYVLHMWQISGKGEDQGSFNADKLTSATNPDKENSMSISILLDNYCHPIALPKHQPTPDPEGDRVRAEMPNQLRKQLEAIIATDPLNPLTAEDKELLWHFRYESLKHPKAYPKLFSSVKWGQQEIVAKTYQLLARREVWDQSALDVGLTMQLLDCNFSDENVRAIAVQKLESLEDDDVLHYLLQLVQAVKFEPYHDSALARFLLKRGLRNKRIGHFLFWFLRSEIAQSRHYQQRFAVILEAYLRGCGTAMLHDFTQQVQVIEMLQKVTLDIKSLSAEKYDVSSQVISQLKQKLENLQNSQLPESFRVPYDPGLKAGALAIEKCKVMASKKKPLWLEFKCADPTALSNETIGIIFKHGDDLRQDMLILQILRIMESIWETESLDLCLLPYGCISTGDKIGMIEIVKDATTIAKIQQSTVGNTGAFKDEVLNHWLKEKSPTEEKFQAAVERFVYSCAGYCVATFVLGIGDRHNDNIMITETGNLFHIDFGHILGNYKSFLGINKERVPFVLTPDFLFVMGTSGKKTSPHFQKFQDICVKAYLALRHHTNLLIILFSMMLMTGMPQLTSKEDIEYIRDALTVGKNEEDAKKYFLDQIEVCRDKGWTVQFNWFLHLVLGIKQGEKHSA
UniProt Q05397, whole entry: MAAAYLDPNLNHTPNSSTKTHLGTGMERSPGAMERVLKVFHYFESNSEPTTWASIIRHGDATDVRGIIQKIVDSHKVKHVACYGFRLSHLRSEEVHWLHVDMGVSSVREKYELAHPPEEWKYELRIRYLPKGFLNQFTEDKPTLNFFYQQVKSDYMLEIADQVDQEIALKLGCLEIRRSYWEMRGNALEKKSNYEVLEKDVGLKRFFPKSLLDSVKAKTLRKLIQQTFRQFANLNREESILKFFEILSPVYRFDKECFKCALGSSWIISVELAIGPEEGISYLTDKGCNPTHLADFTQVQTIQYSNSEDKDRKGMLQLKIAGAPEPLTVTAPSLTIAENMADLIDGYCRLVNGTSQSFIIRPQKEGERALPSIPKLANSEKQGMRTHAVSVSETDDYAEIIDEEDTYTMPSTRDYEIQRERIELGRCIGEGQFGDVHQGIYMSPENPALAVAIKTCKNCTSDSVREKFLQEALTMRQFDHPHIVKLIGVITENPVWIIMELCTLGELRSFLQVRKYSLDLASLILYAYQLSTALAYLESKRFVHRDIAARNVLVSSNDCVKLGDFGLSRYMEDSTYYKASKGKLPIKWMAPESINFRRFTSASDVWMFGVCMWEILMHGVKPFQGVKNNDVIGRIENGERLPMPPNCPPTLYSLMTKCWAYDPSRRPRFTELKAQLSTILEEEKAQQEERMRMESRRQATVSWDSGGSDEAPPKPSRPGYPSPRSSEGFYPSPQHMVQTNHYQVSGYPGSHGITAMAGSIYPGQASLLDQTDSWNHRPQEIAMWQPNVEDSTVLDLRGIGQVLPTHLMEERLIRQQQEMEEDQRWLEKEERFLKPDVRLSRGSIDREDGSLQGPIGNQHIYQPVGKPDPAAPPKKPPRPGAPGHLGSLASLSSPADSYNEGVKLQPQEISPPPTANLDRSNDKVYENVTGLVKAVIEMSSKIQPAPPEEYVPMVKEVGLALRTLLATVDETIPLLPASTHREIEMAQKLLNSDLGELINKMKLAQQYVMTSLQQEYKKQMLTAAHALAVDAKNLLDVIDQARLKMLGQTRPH
UniProt O94804: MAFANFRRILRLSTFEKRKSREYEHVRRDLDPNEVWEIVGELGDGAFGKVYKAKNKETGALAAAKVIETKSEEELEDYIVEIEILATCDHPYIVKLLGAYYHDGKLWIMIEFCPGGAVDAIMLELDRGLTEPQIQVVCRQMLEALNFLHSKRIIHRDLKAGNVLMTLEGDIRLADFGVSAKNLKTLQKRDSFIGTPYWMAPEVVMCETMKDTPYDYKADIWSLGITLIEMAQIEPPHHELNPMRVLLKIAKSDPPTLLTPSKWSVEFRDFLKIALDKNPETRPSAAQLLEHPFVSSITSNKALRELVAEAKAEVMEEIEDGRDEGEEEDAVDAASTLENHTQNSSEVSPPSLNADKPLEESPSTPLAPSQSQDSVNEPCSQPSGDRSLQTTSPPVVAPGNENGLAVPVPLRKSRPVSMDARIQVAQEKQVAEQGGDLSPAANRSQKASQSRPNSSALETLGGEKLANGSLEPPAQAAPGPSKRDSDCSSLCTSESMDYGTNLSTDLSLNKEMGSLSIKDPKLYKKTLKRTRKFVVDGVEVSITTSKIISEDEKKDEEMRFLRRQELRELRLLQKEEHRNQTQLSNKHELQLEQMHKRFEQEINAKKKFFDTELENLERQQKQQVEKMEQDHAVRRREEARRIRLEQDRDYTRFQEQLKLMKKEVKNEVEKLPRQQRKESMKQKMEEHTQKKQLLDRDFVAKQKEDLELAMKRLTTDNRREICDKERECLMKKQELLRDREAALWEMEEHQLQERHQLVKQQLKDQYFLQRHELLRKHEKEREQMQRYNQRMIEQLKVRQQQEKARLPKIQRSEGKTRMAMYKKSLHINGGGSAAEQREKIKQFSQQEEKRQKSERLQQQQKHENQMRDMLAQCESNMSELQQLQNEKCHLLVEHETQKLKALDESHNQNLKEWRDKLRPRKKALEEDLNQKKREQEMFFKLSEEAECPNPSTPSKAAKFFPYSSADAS
UniProt Q16513: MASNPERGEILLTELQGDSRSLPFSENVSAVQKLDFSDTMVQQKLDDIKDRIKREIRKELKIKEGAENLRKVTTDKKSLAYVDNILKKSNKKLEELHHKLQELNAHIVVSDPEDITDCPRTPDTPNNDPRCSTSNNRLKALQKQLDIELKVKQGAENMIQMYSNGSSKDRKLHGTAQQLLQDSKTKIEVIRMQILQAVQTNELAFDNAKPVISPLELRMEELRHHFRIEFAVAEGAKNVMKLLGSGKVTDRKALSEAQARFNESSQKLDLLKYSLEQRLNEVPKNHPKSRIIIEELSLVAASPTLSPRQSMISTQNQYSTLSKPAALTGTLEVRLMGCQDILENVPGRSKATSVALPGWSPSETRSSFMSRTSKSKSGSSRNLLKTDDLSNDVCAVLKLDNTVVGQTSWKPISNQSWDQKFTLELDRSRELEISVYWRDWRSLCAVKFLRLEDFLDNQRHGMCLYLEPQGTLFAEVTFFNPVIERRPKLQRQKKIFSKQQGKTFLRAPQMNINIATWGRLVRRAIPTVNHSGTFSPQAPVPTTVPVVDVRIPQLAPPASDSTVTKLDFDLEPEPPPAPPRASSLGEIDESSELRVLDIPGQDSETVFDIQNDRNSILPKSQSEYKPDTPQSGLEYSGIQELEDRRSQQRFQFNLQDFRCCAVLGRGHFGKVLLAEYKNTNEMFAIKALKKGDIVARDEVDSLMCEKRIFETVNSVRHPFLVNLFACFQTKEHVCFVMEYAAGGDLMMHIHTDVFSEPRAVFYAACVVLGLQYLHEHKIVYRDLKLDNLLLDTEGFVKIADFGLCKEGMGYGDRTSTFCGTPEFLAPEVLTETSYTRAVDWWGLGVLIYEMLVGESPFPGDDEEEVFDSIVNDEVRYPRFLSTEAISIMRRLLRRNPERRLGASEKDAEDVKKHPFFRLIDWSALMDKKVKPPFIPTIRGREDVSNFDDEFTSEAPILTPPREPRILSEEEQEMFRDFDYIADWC

How the values were obtained:
[1] = biological target: MRCKalpha(h) (Homo sapiens, UniProt Q5VT25); assay: biochemical
[2] = biological target: KDR(h) (Homo sapiens, UniProt P35968); assay: biochemical
[3] = biological target: ALK1(h) (Homo sapiens, UniProt P37023); assay: biochemical
[4] = biological target: CDK6/cyclinD3(h) (Homo sapiens, UniProt Q00534); assay: biochemical
[5] = biological target: PASK(h) (Homo sapiens, UniProt Q96RG2); assay: biochemical
[6] = biological target: T1, PI3 Kinase (p110d/p85a)(h) (Homo sapiens, UniProt O00329); conditions: 10 µM
[7] = biological target: OTUD5 (p117S) (Homo sapiens, UniProt Q96G74); assay: biochemical; conditions: read-out: Activity (% Control)
[8] = biological target: ULK3(h) (Homo sapiens, UniProt Q6PHR2); assay: biochemical
[9] = biological target: T2, PI3KC2a(h) (Homo sapiens, UniProt O00443); conditions: 10 µM
[10] = biological target: DDR2(h) (Homo sapiens, UniProt Q16832); assay: biochemical
[11] = biological target: T2, PI3KC2a(h); assay: biochemical
[12] = biological target: EphA1(h) (Homo sapiens, UniProt P21709); assay: biochemical
[13] = biological target: MSK2(h) (Homo sapiens, UniProt O75676); assay: biochemical
[14] = biological target: EphA2(h) (Homo sapiens, UniProt P29317); assay: biochemical
[15] = biological target: PI3 Kinase (p110b/p85a)(h) (Homo sapiens, UniProt P42338); conditions: 10 µM; listed as BAY-805, 10 µM
[16] = biological target: T3, PI3 Kinase (p120g)(h) (Homo sapiens, UniProt P48736); assay: biochemical
[17] = biological target: LRRK2(h) (Homo sapiens, UniProt Q5S007); assay: biochemical
[18] = biological target: CaMKIdelta(h) (Homo sapiens, UniProt Q8IU85); assay: biochemical
[19] = biological target: IRAK1(h) (Homo sapiens, UniProt P51617); assay: biochemical
[20] = biological target: USP1/UAF1 (Homo sapiens, UniProt O94782); assay: biochemical; conditions: read-out: Activity (% Control)
[21] = biological target: AMSH-LP (+Zinc) (Homo sapiens, UniProt Q96FJ0); assay: biochemical; conditions: read-out: Activity (% Control)
[22] = biological target: DYRK1A(h) (Homo sapiens, UniProt Q13627); assay: biochemical
[23] = biological target: p70S6K(h) (Homo sapiens, UniProt P23443); assay: biochemical
[24] = biological target: Axl(h) (Homo sapiens, UniProt P30530); assay: biochemical
[25] = biological target: IRE1(h) (Homo sapiens, UniProt O75460); assay: biochemical
[26] = biological target: IR(h) (Homo sapiens, UniProt P06213); assay: biochemical
[27] = biological target: MRCKbeta(h) (Homo sapiens, UniProt Q9Y5S2); assay: biochemical
[28] = biological target: FAK(h) (Homo sapiens, UniProt Q05397); assay: biochemical
[29] = biological target: T3, PI3 Kinase (p120g)(h); conditions: 10 µM
[30] = biological target: USP36 (Homo sapiens, UniProt Q9P275); assay: biochemical; conditions: read-out: Activity (% Control)
[31] = biological target: T1, PI3 Kinase (p110d/p85a)(h); assay: biochemical
[32] = biological target: LOK(h) (Homo sapiens, UniProt O94804); assay: biochemical
[33] = biological target: PRK2(h) (Homo sapiens, UniProt Q16513); assay: biochemical
[34] = biological target: CDK5/p25(h) (Homo sapiens, UniProt Q00535); assay: biochemical
[35] = biological target: USP45 (Homo sapiens, UniProt Q70EL2); assay: biochemical; conditions: read-out: Activity (% Control)
[36] = biological target: UCHL1 (Homo sapiens, UniProt P09936); assay: biochemical; conditions: read-out: Activity (% Control)
[37] = biological target: USP25 (Homo sapiens, UniProt Q9UHP3); assay: biochemical; conditions: read-out: Activity (% Control)
[38] = biological target: USP11 (Homo sapiens, UniProt P51784); assay: biochemical; conditions: read-out: Activity (% Control)
[39] = biological target: USP5 (Homo sapiens, UniProt P45974); assay: biochemical; conditions: read-out: Activity (% Control)

SMILES	inhibition at 10 µM [1] [%]	inhibition at 10 µM [2] [%]	inhibition at 10 µM [3] [%]	inhibition at 10 µM [4] [%]	inhibition at 10 µM [5] [%]	inhibition at 10 µM [8] [%]	inhibition at 10 µM [10] [%]	inhibition at 10 µM [12] [%]	inhibition at 10 µM [13] [%]	inhibition at 10 µM [14] [%]	inhibition at 10 µM [17] [%]	inhibition at 10 µM [18] [%]	inhibition at 10 µM [19] [%]	inhibition at 10 µM [22] [%]	inhibition at 10 µM [23] [%]	inhibition at 10 µM [24] [%]	inhibition at 10 µM [25] [%]	inhibition at 10 µM [26] [%]	inhibition at 10 µM [27] [%]	inhibition at 10 µM [28] [%]	also measured
CC(C)C[C@@H](NC(=O)C1(C(F)(F)F)CCCCC1)C(=O)Nc1nnc(Cc2ccc(C#N)cc2)s1 [Compound 21, N-[(1R)-1-[[5-[(4-Cyanophenyl)methyl]-1,3,4-thiadiazol-2-yl]carbamoyl]-3-methyl-butyl]-1-(trifluoromethyl)cyclohexanecarboxamide]	-0.05	15.9	2.39	-12.4	15.4	5.11	-4.1	4.63	15.2	7.27	-3.23	-9.34	-2.62	-2.65	2.52	-0.59	-8.46	-5.67	6.66	-2.96	Inhibition [6]: 21; remaining activity at 1 µM [7]: 102%; remaining activity at 10 µM [7]: 90%; Inhibition [9]: 5.4; inhibition at 10 µM [11]: 7.47%; Inhibition [15]: 7.43% and 15.38%; inhibition at 10 µM [16]: 2.58%; remaining activity at 1 µM [20]: 117%; remaining activity at 10 µM [20]: 111%; remaining activity at 1 µM [21]: 99%; remaining activity at 10 µM [21]: 93%; Inhibition [29]: 3.07; remaining activity at 1 µM [30]: 110%; remaining activity at 10 µM [30]: 101%; inhibition at 10 µM [31]: 13.1%; inhibition at 10 µM [32]: -0.83%; inhibition at 10 µM [33]: 4.47%; inhibition at 10 µM [34]: -2.47%
CC(C)C[C@H](NC(=O)C1(C(F)(F)F)CCCCC1)C(=O)Nc1nnc(Cc2ccc(C#N)cc2)s1 [Compound 22, CC(C)C[C@H](NC(=O)C1(CCCCC1)C(F)(F)F)C(=O)Nc2nnc(Cc3ccc(cc3)C#N)s2]	8.27	11.9	-3.75	-16.8	11.3	-3.51	-7.41	-8.87	3.68	-2.44	-2.52	-10.5	-2.41	-5.31	-3.21	5.28	-7.86	-7.1	0.48	-23.6	remaining activity at 1 µM [35]: 94%; remaining activity at 10 µM [35]: 98%; remaining activity at 1 µM [36]: 100%; remaining activity at 10 µM [36]: 103%; remaining activity at 1 µM [37]: 105%; remaining activity at 10 µM [37]: 105%; remaining activity at 1 µM [30]: 100%; remaining activity at 10 µM [30]: 95%; remaining activity at 1 µM [38]: 99%; remaining activity at 10 µM [38]: 102%; remaining activity at 1 µM [39]: 104%; remaining activity at 10 µM [39]: 105%; inhibition at 10 µM [32]: -13.1%; inhibition at 10 µM [33]: 9.51%; inhibition at 10 µM [34]: 1.49%

“And” between values parts separate entries of the source, which are not always exact repeats. Identical values can stand only once.
